Values joined by “and” are separate entries in the source; they are usually repeats but may differ in a detail not shown here. Identical values can stand only once. Like-named read-outs stand apart in the source and are kept apart here.
Columns and labels:
[1] = test system: spontaneous locomotor activity of mice
[2] = test system: GABA transporter GAT-1; settings: 0.01–100 µM, 4 independent assays, COS-7 cells; listed as (R)-7 [(R)-AS-1]
[3] = test system: PTZ-induced seizures in zebrafish larvae; settings: 4 mM, 24 h preincubation, then 20 mM PTZ; vs only PTZ-treated larvae
[4] = test system: PTZ-induced kindling in mice
[5] = test system: NMDA receptors (tonic NMDA currents)
[6] = biological target: EAAT2 (primary glia cells) (Rattus norvegicus, UniProt P31596)
[7] = test system: GABA transporter GAT-3; settings: 0.01–100 µM, 4 independent assays, COS-7 cells; listed as (R)-7 [(R)-AS-1]

Sequences of proteins named here, by UniProt entry; tags and fusion partners are left off. Residues count along the entry.
UniProt P31596, 7-550 limits assumed: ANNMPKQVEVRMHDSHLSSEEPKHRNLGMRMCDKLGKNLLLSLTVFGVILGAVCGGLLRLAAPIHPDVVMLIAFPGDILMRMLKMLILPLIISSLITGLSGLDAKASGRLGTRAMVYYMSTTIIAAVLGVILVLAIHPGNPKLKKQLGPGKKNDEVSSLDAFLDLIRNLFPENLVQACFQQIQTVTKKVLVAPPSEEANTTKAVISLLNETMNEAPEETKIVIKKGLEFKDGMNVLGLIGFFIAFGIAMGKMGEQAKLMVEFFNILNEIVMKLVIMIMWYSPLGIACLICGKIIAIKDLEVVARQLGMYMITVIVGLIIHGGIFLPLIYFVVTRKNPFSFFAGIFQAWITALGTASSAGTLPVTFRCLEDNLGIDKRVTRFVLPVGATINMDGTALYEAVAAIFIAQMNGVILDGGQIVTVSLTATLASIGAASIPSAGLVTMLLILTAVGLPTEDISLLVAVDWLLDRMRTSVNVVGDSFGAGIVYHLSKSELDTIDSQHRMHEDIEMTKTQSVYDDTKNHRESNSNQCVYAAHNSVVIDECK

Row | SMILES | spontaneous locomotor activity, [%] inhibition/activation vs vehicle-treated group ([1]; 30 mg/kg i.p.) [%] | spontaneous locomotor activity, [%] inhibition/activation vs vehicle-treated group ([1]; 60 mg/kg i.p.) [%] | spontaneous locomotor activity, [%] inhibition/activation vs vehicle-treated group ([1]; 90 mg/kg i.p.) [%] | % Effect, GABA transporter GAT-1 (Substrate radioligand) [2] | duration of EEG events [3] | number of EEG events [3] | effect on kindling progression ([4]; 40 mg/kg i.p.) | effect on mean seizure severity score ([4]; 10 and 20 mg/kg i.p.) | influence on tonic NMDA currents [5] | tonic NMDA current amplitude after ten minutes application [5] [pA] | increase in Vmax of glutamate uptake ([6]; 10 nM compound) [%] | increase in Vmax of glutamate uptake ([6]; 100 nM compound) [%] | Vmax of glutamate uptake ([6]; + 10 nM compound) [pmol/well/min] | Vmax of glutamate uptake ([6]; + 100 nM compound) [pmol/well/min] | % Effect, GABA transporter GAT-3 (Substrate radioligand) [7]
1 | C[C@H](C(=O)NCc1ccccc1F)N1C(=O)CCC1=O [(R)-8, (R)-2-(2,5-Dioxopyrrolidin-1-yl)-N-(2-fluorobenzyl)propanamide] | 102.3 | 118.6 | 141.6 | – | – | – | – | – | – | – | – | – | – | – | –
2 | C[C@H](C(=O)NCc1ccccc1)N1C(=O)CCC1=O [(R)-7, (R)-N-Benzyl-2-(2,5-dioxopyrrolidin-1-yl)propanamide] | – | – | – | 0% and 0 (4 independent assays in 24 well plates) % | shorter duration of events | lower number of events | significantly delayed kindling progression | significantly decreased mean seizure severity score only after 9th and 14th PTZ injection | did not influence | 147.3±5.9 | ~147 | ~174 | 28 ± 7 | 33 ± 3 | 0% and 0 (4 independent assays in 24 well plates) %
